The species named for assay [1] is Homo sapiens. Description: Selectivity ratio of IC50 for human His-tagged SETD7 (1 to 366 residues) expressed in Escherichia coli to IC50 for recombinant human full-length His6-tagged NTMT1 (1 to 222 residues) expressed in Escherichia coli BL21-CodonPlus(DE3)-RIL competent cells.
Assay [2] is filed under the species Homo sapiens. Description: Selectivity ratio of IC50 for human His-tagged G9a (913 to 1193 residues) expressed in Escherichia coli BL21-CodonPlus(DE3)-RIL to IC50 for recombinant human full-length His6-tagged NTMT1 (1 to 222 residues) expressed in Escherichia coli BL21-CodonPlus(DE3)-RIL competent cells.
Assay [3] in a line: Selectivity ratio of IC50 for Trypanosoma brucei N-terminal His6-tagged PRMT7 expressed in Escherichia coli BL21-CodonPlus(DE3)-RIL to IC50 for recombinant human full-length His6-tagged NTMT1 (1 to 222 residues) expressed in Escherichia coli BL21-CodonPlus(DE3)-RIL competent cells.
The nature of assay [4]: Selectivity ratio of IC50 for rat His6-tagged PRMT1 expressed in Escherichia coli BL21(DE3) to IC50 for recombinant human full-length His6-tagged NTMT1 (1 to 222 residues) expressed in Escherichia coli BL21-CodonPlus(DE3)-RIL competent cells.
Assay [5] is filed under the species Homo sapiens. Description: Selectivity ratio of IC50 for SAHH (unknown origin) to IC50 for recombinant human full-length His6-tagged NTMT1 (1 to 222 residues) expressed in Escherichia coli BL21-CodonPlus(DE3)-RIL competent cells.
The species named for assay [6] is Homo sapiens. Description: Selectivity ratio of IC50 for human His-tagged NNMT (1 to 264 residues) expressed in Escherichia coli BL21(DE3) to IC50 for recombinant human full-length His6-tagged NTMT1 (1 to 222 residues) expressed in Escherichia coli BL21-CodonPlus(DE3)-RIL competent cells.

`CC[C@H](C)[C@H](NC(=O)[C@H](CCCNC(=N)N)NC(=O)[C@H](CCCCN)NC(=O)[C@@H]1CCCN1C(=O)[C@@H]1CCCN1CCCN(CC[C@H](N)C(=O)O)C[C@H]1O[C@@H](n2cnc3c(N)ncnc32)[C@H](O)[C@@H]1O)C(=O)N[C@@H](C)C(N)=O`: the Ratio IC50 in assay [1] is above 600; in assay [2] it was above 600; in assay [3] it was above 100; in assay [4], 200; in assay [5], above 100; in assay [6], above 600.

The record behind these values is ChEMBL document CHEMBL4390676, “Discovery of Bisubstrate Inhibitors for Protein N-Terminal Methyltransferase 1” (J Med Chem, 2019).
